These are literature values, as cited in patent US20060099157A1, “Ether alcohols used as solvents and emulsifiers and dispersions containing said ether alcohols” (IFAC GmbH & Co. KG, priority 2002, published 2006).

The conditions of this data set: cited from earlier work.

Turning to `CCCCC(CC)COC(=O)c1ccc(Nc2nc(Nc3ccc(C(=O)OCC(CC)CCCC)cc3)nc(Nc3ccc(C(=O)OCC(CC)CCCC)cc3)n2)cc1` (centres unmarked) [2,4,6-trianilino-p-(carbo-2′-ethylhexyl-1′-oxy)-1,3,5-triazine], the “solubility in C12-C15-alcohol benzoate” value (hitherto found) was “about 4%”. Also, the “solubility in customary oils” value (hitherto, PPG-3 myristyl ether) was “at most 13%”.
